Biological target: T1, Apelin receptor (Homo sapiens, UniProt P35414)
T1 sequence (P35414 whole entry): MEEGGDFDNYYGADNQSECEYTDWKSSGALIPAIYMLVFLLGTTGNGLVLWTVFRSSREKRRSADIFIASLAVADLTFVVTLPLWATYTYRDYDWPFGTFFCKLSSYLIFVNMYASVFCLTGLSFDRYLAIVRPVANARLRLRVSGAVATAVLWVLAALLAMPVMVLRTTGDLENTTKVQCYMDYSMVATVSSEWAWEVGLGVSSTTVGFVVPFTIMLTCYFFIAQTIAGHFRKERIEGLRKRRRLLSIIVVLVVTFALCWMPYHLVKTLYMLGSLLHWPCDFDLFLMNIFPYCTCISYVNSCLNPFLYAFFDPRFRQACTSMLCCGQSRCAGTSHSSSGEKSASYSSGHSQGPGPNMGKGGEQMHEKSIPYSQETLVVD
Experiment: [35S]GTPgammaS Binding Assay
Experimental: A GTPγS binding assay was performed on membranes prepared from CHO cells stably expressing human APJ receptor. The optimum experimental conditions for the concentrations of GDP, MgCl2, and NaCl in the assay buffer were initially determined. The assay was performed in assay buffer [20 mM HEPES, pH 7.5, 5 mM MgCl2, and 0.1% (w/v) BSA with 200 mM NaCl, 3 μM GDP] and membranes expressing human APJ receptor/well along with WGA PS beads. The reaction was initiated by addition of 0.2 nM [35S]GTPγS (Perkin Elmer Life and Analytical Sciences, Waltham USA) in the absence or presence of various ligands and incubated at RT for 90 min.

Compound `C/C=C(/C)B1OC(C)(C)C(C)(C)O1` [US10221162, Example 671.0] has an EC50 of 9.2 nM.
